# Antibody variant affinities, Ab-14 heavy chain, assay B

Binding partner: SARS-CoV-2 spike HR2 peptide, sequence PDVDLGDISGINAS.

The variants keep the light chain, the linker and the frameworks of Ab-14 (scFv order VH, a (GGGGS)3 linker, VL).
VH: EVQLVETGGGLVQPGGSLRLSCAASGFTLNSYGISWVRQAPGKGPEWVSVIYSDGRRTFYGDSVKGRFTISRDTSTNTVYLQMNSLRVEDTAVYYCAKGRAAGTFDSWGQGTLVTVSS
VL: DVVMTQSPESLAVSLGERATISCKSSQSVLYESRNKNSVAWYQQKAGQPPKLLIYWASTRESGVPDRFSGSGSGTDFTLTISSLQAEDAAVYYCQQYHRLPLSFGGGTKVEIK

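The starting antibody came from a phage panning campaign against this peptide. The variants were designed computationally from a first round of random CDR variants and then made and measured. Several design methods are mixed in this list. Affinity was read by AlphaSeq, a pooled yeast mating assay with surface-displayed partners. Mating (16 h, 30 °C) was followed by selection of diploids and sequencing of their barcodes. A regression on co-assayed BCL2-family reference pairs converts the normalised counts of each replicate to an apparent Kd. Mating was done six times.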

Variants are written as CDR1, CDR2 and CDR3 of the heavy chain (limits as in the source). Parent: GFTLNSYGIS, VIYSDGRRTFYGDSVK, GRAAGTFDS. Variants here have more than six changes. Each Kd is an estimate from the mating assay, the geometric mean of the replicates in which the pair was seen; lower is stronger. "nd" means that the variant was in the library but no mating with the target was seen in any replicate; the authors take this as a sign of poor binding, and no number exists. Order: sorted from the lowest average up, undetected variants last. Empty control strains, which show no peptide, gave a signal in 1% of pairings with all heavy chain designs; the median was 120 nM and 95% of these signals were weaker than 7.0 nM. No background was subtracted. The authors averaged sequences with at least three values out of six and counted those with two or fewer as poor binders. The parent sequence was in this pool as ten entries: three were never detected, three once, and four in most replicates, with averages from 2.2 nM to 240 nM. Values of this round are not directly comparable with the first-round values of the same sequences.

Variant GFDLNEYGIS / VIYADGMRKAYSDSVK / GNVAGTFDV showed 110 pM (6 of 6 replicates). For GFDLNEYGIS / VIYADGKRTAYADSVK / GSNAGTFDV, the assay gave 170 pM (6 of 6 replicates). For GFDLNEYGIS / VIYADGRRTFYADSVK / GQTAGTFDV, the assay gave 210 pM (6 of 6 replicates). For GFNLNEYGIS / VIYADGRRTFYADSVK / GQVAGTFDI, the assay gave 260 pM (6 of 6 replicates). Variant GFDLNEYGIS / VIYADGVRTYYADSVK / GEVAGTFDI showed 290 pM (6 of 6 replicates).

For GFNLDEYGIS / VIYADGRRTFYADDVK / GNVAGTFDV, the assay gave 290 pM (6 of 6 replicates). Variant GFNLDEYGIS / VIYADGRRTFYADSVK / GSEAGTFDT gave 330 pM (6 of 6 replicates). With GFDINEYGIS / VIYADGKRTFYADSVK / GNQAGTFDL the result was 350 pM (6 of 6 replicates). Variant GFDLNEYGIS / VIYADGRRTFYADSVK / GEMAGTFDI showed 420 pM (6 of 6 replicates). Variant GFDLNEYGIS / VIYADGVRTAYSDSVK / GQVAGTFDI showed 470 pM (6 of 6 replicates).

Variant GFDLNEYGIS / VIYADGVRTAYADDVK / GEVAGTFDT gave 560 pM (6 of 6 replicates). For GFDLEDYGIS / VIYADGMRTAYADDVK / GNVAGTFDV, the assay gave 670 pM (6 of 6 replicates). For GFDLNEYGIS / VIYADGQRTAYADSVK / GKAAGTFDI, the assay gave 680 pM (6 of 6 replicates). Variant GFDLNEYGIS / VIYADGQRTAYADSVK / GENAGTFDL gave 700 pM (6 of 6 replicates). For GFDLNEYGIS / VIYADGVRTQYIDSVK / GEAAGTFDS, the assay gave 860 pM (6 of 6 replicates).

Variant GFNLDEYGIS / VIYADGRRTFYADSVK / GEHAGTFDM showed 1.1 nM (6 of 6 replicates). With GFDINEYGIS / VIYADGRRTFYSDSVK / GGNAGTFDS the result was 1.2 nM (6 of 6 replicates). For GFNLDEYGIS / VIYADGRRTAYSDNVK / GEVAGTFDI, the assay gave 1.2 nM (6 of 6 replicates). With GFDLNEYGIS / VIYADGMRTVYADSVK / GNNAGTFDV the result was 1.3 nM (6 of 6 replicates). With GFDLNEYGIS / VIYADGRRTSYIDSVK / GNVAGTFDL the result was 1.7 nM (6 of 6 replicates).

For GFDLNEYGIS / VIYADGMRTQYIDSVK / GNAAGTFDA, the assay gave 1.9 nM (6 of 6 replicates). For GFDLDEYGIS / VIYADGMRTAYVDSVK / GENAGTFDI, the assay gave 6.2 nM (6 of 6 replicates). Variant GFNLNEYGIS / VIYADGMRTAYTDSVK / GETAGTFIN showed 8.4 nM (6 of 6 replicates). With GFDLNDYGIS / VIYADGMRTQYIDSVK / GENAGTFDL the result was 9.6 nM (6 of 6 replicates). Variant GEDLLEYGIS / VIYADGIRVMYMNQVK / GNVAGFFTL gave 11 nM (1 of 6 replicates).

For GFDINDYGIS / VIYADGLRTSYSTNFK / GIYAGTFTS, the assay gave 13 nM (6 of 6 replicates). For GFDLNEYGIS / VIYADGRRTAYIDSVK / GTNAGTFDQ, the assay gave 120 nM (1 of 6 replicates). With GFPLDEYGIS / VIYADGERTHYSNDVK / GTIGGTFFQ the result was 140 nM (6 of 6 replicates). For GFDLNEYGIS / VIYADGRRTAYSDSVK / GGNAGFFDL, the assay gave 1.5 µM (2 of 6 replicates). Variant GFDLNEYGIS / VIYADGVQRFYTDNVK / GGNQGTAVL showed 2.1 µM (1 of 6 replicates).

Variant GFDLDNEGIS / VIYADGIRTAYQDSVK / GQNVATFNV showed nd (0 of 6 replicates). With GFDLQEYGIS / VIYADGSRTAYNQNVK / GLTLDSYDV the result was nd (0 of 6 replicates). For GEQLDEYGIS / VIYADGRRTAYSQSVK / GLNGGIIDV, the assay gave nd (0 of 6 replicates). Variant GFNLDEYGIS / VIYADGRRTFYQDDVK / GNVAGTFDV showed nd (0 of 6 replicates). Variant GFDLMEYGIS / VIYADGVRTAYLDQVK / GEEGGAYYT gave nd (0 of 6 replicates).

Variant GFDLNEYGIS / VIYADGRRTFYADSVK / GTNAGTILV showed nd (0 of 6 replicates). With GFDINEYGIS / VIYADGNRIAYQDQVK / GFNAGSFVI the result was nd (0 of 6 replicates). For GFDLDNFGIS / VIYADGIRTQYQDSVK / GQNVATFDV, the assay gave nd (0 of 6 replicates). With GFQLDEYGIS / VIYADGKRTAYAQNFK / GNGLVIQEG the result was nd (0 of 6 replicates). Variant GFDIEEYGIS / VIYADGKRAAYADAVK / GENMDMMTD gave nd (0 of 6 replicates).

With GFQLDEYGIS / VIYADGQRTAYKQKVK / GSDTGLMWF the result was nd (0 of 6 replicates). Variant GFSLDEFGIS / VIYADGMRSFYTDNVK / GINVNALVI showed nd (0 of 6 replicates). With GYDLNEYGIS / VIYADGVRVAYQNQVK / GNINGSFTF the result was nd (0 of 6 replicates). With GFDLNEYGIS / VIYADGRRTFYIDSVK / GTNAGTFDV the result was nd (0 of 6 replicates). Variant GFSLDEYGIS / VIYADGMRNAYTADVK / GGKSEDFFT gave nd (0 of 6 replicates).

The 3 strongest on average among those seen in every replicate, once more:

CDR-H1	CDR-H2	CDR-H3	Kd	replicates with signal
GFDLNEYGIS	VIYADGMRKAYSDSVK	GNVAGTFDV	110 pM	6/6
GFDLNEYGIS	VIYADGKRTAYADSVK	GSNAGTFDV	170 pM	6/6
GFDLNEYGIS	VIYADGRRTFYADSVK	GQTAGTFDV	210 pM	6/6

Data: MIT Lincoln Laboratory AlphaSeq set, Li et al. 2023, doi:10.1038/s41467-023-39022-2, as distributed in FLAb.